According to patent publication US20250188143A1, “COMBINED GENE AND RADIO THERAPY FOR THE TREATMENT OF CANCER” (FUNDACION PARA LA INVESTIGACION MEDICA APLICADA, priority 2022, published 2025):

Key:
[1] = tested on: melanoma and renal cancer; details: in vivo; cited from earlier work
B16 cells = experiment: Radiation and IFN signaling on activation of the ISREx4 promoter (luciferase); assay type: cell-based, murine; details: B16 cells transduced with AAV8-ISREx4-LucmiR122T
Method: To this end, B16 cells received 8 Gy or 0 Gy as described above and then were transduced with AAV8-ISREx4-LucmiR122T (1×10^5 viral genomes/cell) and 48 h later 1,000 IU of either IFN-α, IFN-β or IFN-γ were added to the culture and luciferase activity was measured 48 h later as described above.

Molecule | side effects [1] | luciferase activity (B16 cells; 1,000 IU interferon alone (0 Gy)) | luciferase activity (B16 cells; interferon together with radiation 8 Gy)
IL-2: cytokine interleukin-2 used in immunotherapies for melanoma and renal cancer | severe side effects are common | – | –
IFN-β: exogenously added interferon, 1,000 IU (protein, UniProt P01574 22-187, looked up) Interferon beta: MSYNLLGFLQRSSNFQCQKLLWQLNGRLEYCLKDRMNFDIPEEIKQLQQFQKEDAALTIYEMLQNIFAIFRQDSSSTGWNETIVENLLANVYHQINHLKTVLEEKLEKEDFTRGKLMSSLHLKRYYGRILHYLKAKEYSHCAWTIVRVEILRNFYFINRLTGYLRN | – | significantly increased luciferase activity | induced luciferase activity dramatically
